The results in this text go back to US8987445B2, “Sulfonamide compounds having TRPM8 antagonistic activity” (Mitsubishi Tanabe Pharma Corporation, priority 2011, dated 2015).

Amino acid sequences for entries named in this document (tags omitted).
UniProt Q7Z2W7, whole entry: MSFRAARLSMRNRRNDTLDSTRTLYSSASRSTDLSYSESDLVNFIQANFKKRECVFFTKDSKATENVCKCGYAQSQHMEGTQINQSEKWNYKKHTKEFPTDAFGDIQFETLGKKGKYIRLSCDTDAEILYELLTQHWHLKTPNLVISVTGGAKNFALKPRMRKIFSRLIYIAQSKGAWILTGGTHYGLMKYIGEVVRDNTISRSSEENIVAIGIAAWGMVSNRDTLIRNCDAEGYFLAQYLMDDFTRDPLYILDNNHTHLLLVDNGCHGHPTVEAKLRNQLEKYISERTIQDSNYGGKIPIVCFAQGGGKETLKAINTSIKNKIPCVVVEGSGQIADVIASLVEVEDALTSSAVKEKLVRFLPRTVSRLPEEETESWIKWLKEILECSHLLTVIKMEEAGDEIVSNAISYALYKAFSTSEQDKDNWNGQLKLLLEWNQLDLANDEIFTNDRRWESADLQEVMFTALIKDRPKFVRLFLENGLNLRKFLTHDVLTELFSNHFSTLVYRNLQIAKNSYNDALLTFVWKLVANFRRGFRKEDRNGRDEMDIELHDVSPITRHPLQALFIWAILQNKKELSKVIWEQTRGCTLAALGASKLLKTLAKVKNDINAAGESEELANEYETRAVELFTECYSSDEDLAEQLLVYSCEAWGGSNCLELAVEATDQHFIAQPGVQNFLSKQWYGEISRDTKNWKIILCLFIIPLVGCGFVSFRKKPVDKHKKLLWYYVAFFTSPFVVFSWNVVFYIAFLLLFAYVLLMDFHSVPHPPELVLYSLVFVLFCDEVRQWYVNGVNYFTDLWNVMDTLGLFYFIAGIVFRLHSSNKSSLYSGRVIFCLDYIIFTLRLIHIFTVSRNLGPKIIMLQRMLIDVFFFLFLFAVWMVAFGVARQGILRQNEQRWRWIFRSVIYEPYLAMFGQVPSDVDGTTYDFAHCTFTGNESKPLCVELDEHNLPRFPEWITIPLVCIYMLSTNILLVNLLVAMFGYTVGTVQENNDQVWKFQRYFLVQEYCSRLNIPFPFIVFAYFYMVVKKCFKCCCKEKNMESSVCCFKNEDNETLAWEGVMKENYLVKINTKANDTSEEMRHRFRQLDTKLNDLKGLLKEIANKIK

The target of the test is human TRPM8 (Homo sapiens (Human), UniProt Q7Z2W7). In words: TRPM8 inhibition assay (menthol-induced calcium influx, FDSS). In kind it is cell-based. The note with it: read-out: TRPM8 Blocking Test (IC50); HEK293 cells stably expressing human TRPM8; 100 μM menthol; Fura-2AM Ca2+ signal.

For `O=C(O)c1ccc(S(=O)(=O)N(Cc2ccc(C(F)(F)F)cn2)c2ncc3ccccc3c2C2CC2)cc1`, the half-maximal inhibitory concentration (IC50) amounted to 2.2 nM.
